Data on one substance can be found in patent US20040191303A1, “Use of selectin-binding pregnancy proteins, liposomes, native mucin fragments and mimetic compounds for the treatment and prophylaxis inflammatory diseases, for preventing metastatic spread and for the prophylaxis of tumour diseases” (priority 2000, published 2004).

This test concerns the target T1, E-selectin (Homo sapiens, UniProt P16581).
T1 construct: purchased R & D Systems
T1 sequence (P16581 22-610): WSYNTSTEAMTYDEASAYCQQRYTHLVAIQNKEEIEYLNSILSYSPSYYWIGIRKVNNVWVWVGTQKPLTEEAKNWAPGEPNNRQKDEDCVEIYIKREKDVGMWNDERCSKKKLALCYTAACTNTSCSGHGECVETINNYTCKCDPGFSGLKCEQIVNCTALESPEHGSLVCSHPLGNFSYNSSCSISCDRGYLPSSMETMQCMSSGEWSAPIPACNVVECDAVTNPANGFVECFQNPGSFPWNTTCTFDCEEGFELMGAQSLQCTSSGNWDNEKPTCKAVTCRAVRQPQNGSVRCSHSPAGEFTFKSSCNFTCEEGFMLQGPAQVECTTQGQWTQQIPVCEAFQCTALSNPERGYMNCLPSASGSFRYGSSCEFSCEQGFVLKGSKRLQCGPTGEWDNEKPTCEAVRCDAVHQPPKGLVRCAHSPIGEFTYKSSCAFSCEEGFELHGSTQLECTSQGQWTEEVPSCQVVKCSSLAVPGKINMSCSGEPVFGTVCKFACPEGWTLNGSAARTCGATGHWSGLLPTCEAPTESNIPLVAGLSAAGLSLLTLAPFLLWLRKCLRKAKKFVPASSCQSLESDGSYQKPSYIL
Briefly: Adhesion inhibition test: HepG2 hepatoma cells to immobilized recombinant E-selectin. To be noted: HepG2 cell adhesion; concentration of inhibiting agent for 50% inhibition of adhesion. The format is cell-based. The protocol:
The adhesion test described below is used in vitro to test the active substances. To this end, either recombinant E-selectin is immobilized on 96-well titer plates, or the expression of E-selectin on activated endothelial cells from veins of human umbilical cords (HUVEC) is induced by stimulation with cytokines. Culturing of HUVEC endothelial cells is also performed in 96-well microtiter plates.
E-selectin (R & D Systems) (5 μg/ml) is immobilized by incubating at 4° C. over-night. The plates are washed with a calcium-containing phosphate buffer (Ca-PBS) and blocked with 1% bovine serum albumin (BSA) for 1 hour at room temperature. Amniotic hCG (0.005-1 nmol/well) is added and pre-incubated for 30 minutes at room temperature. Thereafter, 1×10^5 51Cr-labelled HepG2 hepatoma cells adhering to E-selectin are added, and this is incubated for another 30 minutes at room temperature. Subsequently, the unbound cells are removed by washing 3 times with Ca-PBS, and the bound cells, following lysis with 0.1 N sodium hydroxide solution, are quantified by means of radioactivity measurement. As controls, the carbohydrate-binding domain of E-selectin-blocking monoclonal antibody BBA2 (R & D Systems), EDTA to remove Ca from the test system, and the monovalent tetrasaccharide sialyl-Lewis x (sLe^x) binding selectively but with low affinity are used and carried along in parallel in the test series. […]

One may read the IC50 as the concentration needed to halve the response being measured. Regarding “sialyl-Lewis x [sLe^x, reference compound]”, the IC50 was determined as 1500 µM.
